Measurements from publication PMC3967229, “Largazole Pharmacokinetics in Rats by LC-MS/MS” (Marine Drugs, 2014).

Key:
[1] = Plasma protein binding by ultrafiltration, rat plasma; type: in vitro ADME; details: for Protein binding (%) Rat (mean ± S.D.): n=3
Method: (§1) The non-specific binding of the compound to the membrane was 15.86%. PB%= (1 − Cf/(1 − NSB)/C0) × 100% (3) where PB is protein binding, Cf is the concentration in the filtrate, C0 is initial concentration and NSB is non-specific binding.
(§2) Protein binding of largazole thiol was performed in human and rat plasma at 0.5, 2 and 5.0 µg/mL, using the ultrafiltration method. Briefly, following the incubation of largazole thiol in plasma at 37 °C for 0.5 h, plasma containing the drug was loaded into the Centrifree® Ultrafiltration Device (Millipore Corp., Carrigtwohill, Ireland), and the filtrate device was centrifuged at 1,800× g for 25 min at 37 °C. Concentrations of the total drug before centrifugation and the free drug in the filtrate were extracted, and the residues were assayed by HPLC-MS/MS. PBS was used to test for nonspecific binding.

[2] = Stability of largazole thiol in human plasma (short-term, freeze/thaw); type: in vitro ADME; details: for Stability, DEV (%) / Stability, Measured (mean): n=3
Method: To test the stability of largazole thiol, three replicates each of low and high concentrations were thawed at room temperature for 6 h to test the short-term stability. Samples at low and high concentrations were thawed at room temperature and refrozen at −20 °C for three cycles and then assayed. The matrix effect was studied by analyzing QC samples of largazole thiol in the mobile phase and extracts of plasma. Six samples at three concentration levels were prepared to calculate the matrix effect.

[3] = Pharmacokinetics study in rats, i.v. bolus of largazole, plasma largazole thiol by LC-MS/MS; type: in vivo, Male Sprague Dawley rats
Method: The pharmacokinetics of largazole thiol was analyzed in rats after administration of a 10-mg/kg intravenous bolus of largazole and samples taken between zero and 5 h. […] The population pharmacokinetic model was developed using a non-linear mixed-effects modeling approach. A two-compartment model best describes the disposition of largazole in rats. The pharmacokinetics parameters of largazole thiol in rats are detailed in Table 8. The calculations assume a complete conversion of largazole to its thiol. The individual observed and predicted concentration-time profiles are depicted in Figure 5. […] The plots of the observed (OBS) concentrations vs. the model predicted (PRED) concentrations and OBS vs. individual predicted (IPRED) concentrations are shown in the top panel of Figure 6.
The non-compartmental pharmacokinetic analysis was utilized to obtain the steady-state pharmacokinetic parameters of each individual’s concentration-time profile, using WinNonLin version 6.3 (Pharsight Corp., Sunnyvale, CA, USA). Table 9 lists the summary statistics for the pharmacokinetic parameters on the observed concentration-time profiles.
Male Sprague Dawley rats (Charles River Laboratories International, Inc., Wilmington, MA, USA) weighing 240–260 g were used for the pharmacokinetic study of largazole. The pharmacokinetics of largazole was performed in rats by intravenous administration of 10 mg/kg. Largazole was formulated by dissolving in 20% ethanol, 20% DMSO, 20% PEG400 and 40% normal saline. A heparinized blood sample at 0.3–0.4 mL was collected from a sublingual vein puncture, according to the following schedule: 0, 0.12, 0.22, 0.33, 0.5, 0.75, 1, 1.5, 2, 3 and 5 h post-drug administration. The collected blood sample was placed on ice immediately, and plasma was separated from the blood sample by centrifugation at 2400× g for 20 min immediately after collection. Plasma samples were kept frozen at −80 °C until analysis by LC-MS/MS. The study was approved by the Institutional Animal Care and Use Committee of the University of Florida.
The population pharmacokinetic model was developed using a non-linear mixed-effects modeling approach. The first-order conditional maximum likelihood estimation in the NONMEM program (double precision, version 7.2, ICON Development Solutions, Elliott City, MD, USA) and NM-TRAN pre-processor were used. The subroutines within NONMEM were linear mammillary models (ADVAN3 used with TRANS4 in the PREDPP library) to investigate a two-compartment, intravenous model.
The non-compartmental pharmacokinetic analysis was utilized to obtain the steady-state pharmacokinetic parameters of each individual’s concentration-time profile, using the software, WinNonLin v5.3 (Pharsight, Mountain View, CA, USA).

[4] = Non-specific binding to the ultrafiltration membrane (PBS); type: in vitro ADME; details: Centrifree ultrafiltration device
Method: as §1, §2

[5] = Plasma protein binding by ultrafiltration, human plasma; type: in vitro ADME; details: for Protein binding (%) Human (mean ± S.D.): n=3
Method: as §1, §2

[6] = 4 h at room temperature, nominal 37.5 ng/mL
[7] = 4 h at room temperature, nominal 300 ng/mL
[8] = Freeze/thaw cycle no. 1, nominal 37.5 ng/mL
[9] = Freeze/thaw cycle no. 1, nominal 300 ng/mL
[10] = Freeze/thaw cycle no. 2, nominal 37.5 ng/mL
[11] = Freeze/thaw cycle no. 2, nominal 300 ng/mL
[12] = Freeze/thaw cycle no. 3, nominal 37.5 ng/mL
[13] = Freeze/thaw cycle no. 3, nominal 300 ng/mL
[14] = population PK two-compartment model, rat, 10 mg/kg i.v. largazole
[15] = rat, single i.v. bolus 10 mg/kg largazole

Substance: largazole thiol
- Protein binding (%) Rat (mean ± S.D.) ([1]; drug concentration 0.5 µg/mL): 79.27 ± 1.85%
- Protein binding (%) Rat (mean ± S.D.) ([1]; drug concentration 2 µg/mL): 74.39 ± 1.95%
- Protein binding (%) Rat (mean ± S.D.) ([1]; drug concentration 5 µg/mL): 77.75 ± 0.86%
- Free drug component ([1]; rat plasma): 23%
- Plasma protein binding, overall mean ([1]; rat plasma, ultrafiltration, mean over 0.5, 2 and 5 µg/mL): 77.14%
- Stability, DEV (%) [2, 6]: 11.73%
- Stability, Measured (mean) [2, 6]: 41.90
- Stability, DEV (%) [2, 7]: 6.78%
- Stability, Measured (mean) [2, 7]: 320.33
- Stability, DEV (%) [2, 8]: 5.87%
- Stability, Measured (mean) [2, 8]: 39.70
- Stability, DEV (%) [2, 9]: 11.89%
- Stability, Measured (mean) [2, 9]: 335.67
- Stability, DEV (%) [2, 10]: 9.68%
- Stability, Measured (mean) [2, 10]: 41.13
- Stability, DEV (%) [2, 11]: −0.56%
- Stability, Measured (mean) [2, 11]: 298.33
- Stability, DEV (%) [2, 12]: 7.73%
- Stability, Measured (mean) [2, 12]: 40.40
- Stability, DEV (%) [2, 13]: 5.22%
- Stability, Measured (mean) [2, 13]: 315.67
- Short-term stability test, differences ([2]; human plasma, room temperature): ≤ 11.73%
- Stability of plasma samples over freeze and thaw cycles ([2]; three freeze and thaw cycles): stable
- Interindividual variability, %CV of CL (ωCL) ([3]; population PK model, rat, 10 mg/kg i.v. largazole): 6.06%
- Interindividual variability, %CV of Vc (ωV) ([3]; population PK model, rat, 10 mg/kg i.v. largazole, fixed): 31.6%
- Inter compartment clearance (Q) [3, 14]: 442 mL/min/kg
- Volume of central compartment (Vc) [3, 14]: 21.8 L/kg
- Volume of peripheral compartment (Vp) [3, 14]: 17.4 L/kg
- Plasma drug concentration after 2 h post-dose ([3]; rat, 10 mg/kg i.v. bolus of largazole, 10 mg/kg): below the quantifiable limit; also recorded: undetectable
- Time to elimination from systemic circulation ([3]; rat, i.v. 10 mg/kg): ≤ 2 h
- Plasma largazole thiol concentration within an hour post-administration [3, 15]: less than 10 ng/mL
- Plasma largazole thiol concentration, initial [3, 15]: about 300 ng/mL
- Clearance compared to romidepsin ([3]; ratio largazole thiol / romidepsin): about two-fold
- Non-specific binding to the membrane [4]: 15.86%
- Protein binding (%) Human (mean ± S.D.) ([5]; drug concentration 0.5 µg/mL): 92.52 ± 0.083%
- Protein binding (%) Human (mean ± S.D.) ([5]; drug concentration 2 µg/mL): 89.38 ± 0.94%
- Protein binding (%) Human (mean ± S.D.) ([5]; drug concentration 5 µg/mL): 88.48 ± 0.23%
- Free drug component ([5]; human plasma): 10%
- Plasma protein binding, overall mean ([5]; human plasma, ultrafiltration, mean over 0.5, 2 and 5 µg/mL): 90.13%

“Also recorded” adds a separate entry of the source.
